System: L3.6pl human pancreatic cancer cells
Experiment: Survival of nude mice with human pancreatic carcinoma
Format: in vivo
Conditions: gemcitabine 125 mg/kg biweekly i.p., PKI166 50 mg/kg daily oral; for Metastasis Liver / Metastasis Lymph Nodes / Pancreatic Tumors: necropsy when moribund
Method: Orthotopic Implantation of Tumor Cells. […] Cells were injected into the pancreas as described previously. The mice were killed when moribund (5–6 wk). […] Histopathology confirmed the nature of the disease.
The therapy experiment was repeated to determine overall survival. To do so, mice were implanted with L3.6pl cells in the pancreas and randomized to the four treatment groups (n=5) on day 7. The mice were killed and necropsied when they became moribund. The volume of pancreatic tumors and the incidence of lymph node and liver metastasis was recorded. Survival was evaluated by the Kaplan-Meier method.
Necropsy Procedures and Histological Studies. Mice were euthanized and the body weight was determined. Primary tumors in the pancreas were excised and weighed.
Statistical Analysis. Pancreatic tumor volume, incidence of metastasis, expression of VEGF, IL-8, quantification of PCNA, TUNEL, CD3 1, and the percentage of apoptotic endothelial cells were compared by unpaired Student's t test. Survival analysis was computed by the Kaplan-Meier method and compared by the log-rank test.

Structure (SMILES) | Survival Median [days] | Survival Range | Metastasis Liver | Metastasis Lymph Nodes | Pancreatic Tumors
C[C@@H](Nc1ncnc2[nH]c(-c3ccc(O)cc3)cc12)c1ccccc1 [PKI166, 4-(R)-phenethylamino-6-(hydroxyl) phenyl-7H-pyrrolo[2.3-d]-pyrimidine] | 70 | 34–90^c^ days | 5/15 | 10/15 | 15/15
Nc1ccn([C@@H]2O[C@H](CO)[C@@H](O)C2(F)F)c(=O)n1 [gemcitabine] | 56 | 42 to 72 days | 11/15 | 13/15 | 15/15

Source: US7344829B2, “Methods for detecting the efficacy of anticancer treatments” (Board of Regents, the University of Texas System, priority 2000, dated 2008)
